Anesthetic bind: candidate novel general anesthetic via apoferritin binding; P02791; apoferritin/1-aminoanthracene competitive binding, fluorescence; Potency, µM (series often up to 77.5 µM), for the others: at the top dose activity change, negative = displacement, actives largely listed as inhibitors; 350,000 compounds, 0.074% hits; AID 485281; further: potency means the concentration at half of the fitted maximal effect; on the % scale 0 is the no-effect control and ±100 the full control effect; nearly all actives have a fitted effect of over 20% in size
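Horse-spleen apoferritin (10 uM) was mixed with 50% saturated 1-aminoanthracene in PBS, exposed to compounds for 10 min at room temperature, and read for fluorescence (ex 380 nm, em 535 nm). Competitive displacement was fitted with a four-parameter Hill equation.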
TrxR1 substrate: is turned over as a substrate by rat TrxR1. 390,000 compounds, 0.01% hits. AID 588456. Potency, µM (series often up to 114 µM), for inactives: at the top dose activity change, negative = substrate turnover. purified TrxR1 substrate turnover, NADPH consumption readout. O89049; further: potency means the concentration at half of the fitted maximal effect; on the % scale 0 is the no-effect control and ±100 the full control effect; nearly all actives have a fitted effect of over 50% in size
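Rat TrxR1, dispensed at 90 nM, was prereduced with 400 uM NADPH (final) for 5 min at ~22 deg C, then incubated with compound 15 min before 400 uM selenite. A first-read NADPH fluorescence drop versus no-compound background flagged substrates.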
ClpP mod: qHTS Assay for Activators of ClpP; ATP-dependent Clp protease proteolytic subunit (Bacillus subtilis (strain 168)), P80244; purified B. subtilis ClpP, FRET peptide cleavage, 20 min; Potency, µM (highest dose often 57.5 µM), for the others: top-dose activity change, negative = active; 340,000 compounds, 1.9% hits; active means well fitted falling curve with a large enough effect; inconclusive means small, poorly fitted or top-dose-only effect; inactive means no such curve, though single readings can be large or run the other way; further: potency means the concentration at half of the fitted maximal effect; the source files actives as falling curves though it sought activators and does not explain the sign; nearly all actives have a fitted effect of over 65% in size
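Purified B. subtilis ClpP, 10 microg/mL final in Tris/HCl pH8 with KCl, BSA, glycerol and Tween-20, cleaved an Abz/nitrotyrosine-quenched decapeptide. Fluorescence (ex 320, em 430) was read at 0 and 20 min at room temperature. Delta was normalized to 5.8 microM ADEP and DMSO/no-enzyme controls.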
miR-21 reporter: raises the signal of a miR-21 reporter | Potency, µM (doses to about 38.3 µM), for inactives: top-dose reporter change, positive = more light | HeLa miR-21 FLuc reporter, luciferase, 48 h | AID 2288 | 340,000 tested, under 10 active; active = well fitted rising curve with a large enough effect; inconclusive = small, poorly fitted or top-dose-only effect; inactive = no such curve, though single readings can be large or run the other way;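 also: % of control where 0% means no effect; miR-21 action dims this reporter so a rising signal means less miR-21 action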
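Luminescence from a firefly luciferase reporter carrying a miR-21 binding site downstream, stably expressed under a CMV promoter in HeLa cells that make miR-21 endogenously, reports miRNA modulation after 48 h compound exposure up to approximately 40uM final.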
TrxR1 inh: rat TrxR1 inhibition; O89049; recombinant rTrxR1, NADPH fluorescence consumption, selenite substrate; Potency, µM (titrated, usually from 114 µM), for inactives: at the highest dose activity change, negative = inhibition, usual class: inhibitors; 390,000 compounds, 1% hits; AID 588453; further: potency means the concentration at half of the fitted maximal effect; on the % scale 0 is the no-effect control and ±100 the full control effect; nearly all actives have a fitted effect of over 65% in size
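Rat TrxR1 (90 nM in the dispensed reagent) was pre-reduced with 400 uM NADPH for 5 min at room temperature, then incubated with compound for 15 min. After 400 uM selenite was added, NADPH fluorescence (Ex 340/Em 450 nm) was followed for 8 min.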
The depositor's hits bear a star; i = inactive; ? = inconclusive; . = not tested or not shown; [ ] = another dose, or the depositor's remark. Shown are actives, neighbours in structure and some others; about 2.5% of the full set was active somewhere. Unless noted, the call rests on the fitted dose curve; in most records, active means well fitted curve in the direction sought with a large enough effect; inconclusive means small, poorly fitted or top-dose-only effect, or another doubt; inactive means no such curve, though single readings can be large; an effect the other way counts as inactive or inconclusive.

By UniProt entry, the sequences of proteins in these tests, tags left out.
ATP-dependent Clp protease proteolytic subunit (Bacillus subtilis (strain 168)), P80244, UniProt P80244, whole entry, looked up: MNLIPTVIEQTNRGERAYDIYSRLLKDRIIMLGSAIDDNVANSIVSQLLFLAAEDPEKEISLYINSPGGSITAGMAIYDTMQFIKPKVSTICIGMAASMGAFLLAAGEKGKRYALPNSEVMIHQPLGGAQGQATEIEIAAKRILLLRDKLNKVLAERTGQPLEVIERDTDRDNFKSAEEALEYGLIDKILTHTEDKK

cpd	mol	Anesthetic bind	TrxR1 substrate	ClpP mod
1	Cc1cc(=O)oc2n[nH]c(-c3ccccc3)c12	-13%	25%	25µM*
2	CCCn1nc(C(=O)Oc2ccc3c(C)cc(=O)oc3c2)c2ccccc2c1=O	184%	702%	30%
3	CC(C)n1nc(C(=O)Oc2ccc(Cl)cc2)c2ccccc2c1=O	-13%	-8%	18µM*
4	Cc1cc(=O)oc2cc(OC(=O)c3nn(C(C)C)c(=O)c4ccccc34)ccc12	312%	658%	-12%
5	Cc1cc(=O)oc2cc(OC(=O)c3ccco3)ccc12	-4%	54%	5%
6	CC1=C(c2ccc(C)c(C)c2)S(=O)(=O)N(Cc2ccc(C(=O)NCc3ccccc3F)cc2)C1=O	-11%	68%	14µM*
7	CC(C)Cc1nc(N2CCN(C(=O)C(C)C)CC2)c(C#N)c2c1CCC2	-17%	56%	20µM*
8	CC(C)Cc1nc(N2CCCCC2)c(C#N)c2c1CCC2	-11%	20%	35µM*
9	CC(C)Cc1nc(N2CCN(C(=O)c3ccco3)CC2)c(C#N)c2c1CCC2	-20%	27%	?
10	CC(C)Cc1nc(Cl)c(C#N)c2c1CCCC2	6%	-6%	2%
11	CC(=O)N1CCN(c2nc(CC(C)C)c3c(c2C#N)CCC3)CC1	-20%	42%[57.1 µM]	-2%
12	CC(C)Cc1nc(N2CCOCC2)c(C#N)c2c1COC(C)(C)C2	-9%	39%[57.1 µM]	28µM*

cpd	miR-21 reporter	TrxR1 inh
1	-21%	-15%
2	-1%	50µM*
3	-1%	-10%
4	-5%	25µM*
5	0%	71µM*
6	1%	65%
7	6%	-16%[57.1 µM]
8	-2%	-8%[57.1 µM]
9	-11%	?
10	-2%	-2%
11	-8%	16%[57.1 µM]
12	-10%	57%

Next part:
cpd	mol	Anesthetic bind	TrxR1 substrate	ClpP mod
13	CC(C)Cc1nc(N2CCN(C(=O)c3ccccc3)CC2)c(C#N)c2c1CCC2	-21%	19%	32µM*
14	COc1ccccc1CNC(=O)CCCn1c(=O)c2ccccc2n(Cc2ccc(C)cc2)c1=O	4%	-1%	-3%
15	CCCCc1ccc(CC(=O)NO)cc1	.	-7%	-2%
16	COc1cccc(-c2cn3c(n2)sc2cc(C(=O)NCCc4ccc(OC)c(OC)c4)ccc23)c1	-15%	3%[11.4 µM]	5%
17	CCOC(=O)Cc1ccc(NC(=O)N2CC(C)Oc3ccc(Cl)cc32)cc1 (configuration not stated)	?	0%	1%
18	Cc1ccc(Cl)cc1N1CCN(C(=O)c2ccc3c(Cl)c4c(nc3c2)CCCC4)CC1	-5%	-3%	-2%
19	CCCCNC(=O)CSc1nc2n[nH]c(C)c2c(=N)n1-c1ccccc1CC	-5%	8%[57.1 µM]	2%
20	Cc1ccc(NC(=O)c2oc3ccc(S(=O)(=O)N4CCCCCC4)cc3c2C)c(C)c1	20%	7%[57.1 µM]	5%
21	CCCNC(=O)N1CCN(c2nc(C(C)C)c3c(c2C#N)CC(C)(C)OC3)CC1	4%	20%	5%
22	Cc1ccc(S(=O)(=O)N2CCN(c3nc(C(C)C)c4c(c3C#N)CC(C)(C)OC4)CC2)cc1	-7%	21%	14µM*
23	O=C(O)c1ccc(-c2ccc3cc(C45CC6CC(CC(C6)C4)C5)c(O)cc3c2)cc1	-5%	.	.
24	CCCCCn1c(-c2ccc(OC)c(OC)c2)nc2ccccc21	-3%	13%	-1%

cpd	miR-21 reporter	TrxR1 inh
13	-4%	-13%
14	3%	7%
15	.	-5%
16	-3%	20%
17	4%	2%
18	4%	9%
19	-16%	20%[57.1 µM]
20	-4%	16%[57.1 µM]
21	-6%	25%
22	-6%	18%
23	.	.
24	?	16%

New compounds follow
cpd	mol	Anesthetic bind	TrxR1 substrate	ClpP mod
25	CCCc1nn(C)c2c(=O)[nH]c(-c3ccccc3OCC)nc12	-4%	-7%	20µM*
26	CCCCNC(=O)OCC(CC)NC(=O)OC(C)C (configuration not stated)	-12%	-8%	28µM*
27	c1ccc(-c2onc(-c3ccco3)c2-c2ccc3c(c2)OCO3)cc1	-10%	8%	?
28	COc1ccc(-c2c(-c3ccc4c(c3)OCO4)noc2-c2ccsc2)cn1	.	1%	-26%
29	C=Nc1ccc(/C=C/c2ccnc3ccccc23)cc1	.	-2%	0%
30	CCOc1ccc(N(CC)S(=O)(=O)N2CCCC(C(=O)NCc3ccccc3OCC)C2)cc1 (configuration not stated)	76%	-8%	1%
31	Cc1sc2ncnc(SCC(=O)N3c4ccccc4Sc4ccc(Cl)cc43)c2c1C	-4%	10%	-2%
32	CCOC(=O)c1c(C)sc2c1N(C(=O)CCl)c1cc(Cl)ccc1S2	-19%	-2%	0%
33	Cc1ccc(S(=O)(=O)NCCC(=O)Oc2ccc3ccc(=O)oc3c2)cc1	155%	94%	3%
34	Cc1ccc(S(=O)(=O)NC(C(=O)Oc2ccc3ccc(=O)oc3c2)c2ccccc2)cc1 (configuration not stated)	457%	259%	24%
35	Cc1ccc2cc(S(=O)(=O)NCCC(=O)O)ccc2c1	-5%	7%	-3%
36	CCC(NC(=O)OCc1ccccc1)C(=O)Oc1ccc2ccc(=O)oc2c1 (configuration not stated)	343%	117%	.

cpd	miR-21 reporter	TrxR1 inh
25	-5%	-6%
26	-1%	-5%
27	-2%	50µM*
28	.	18%
29	.	8%
30	29%	9%
31	-7%	12%
32	?	5µM*
33	-13%	56µM*
34	-3%	50µM*
35	-3%	18%
36	0%	50µM*

The closing 4 records of the part before lead into the next:
cpd	mol	Anesthetic bind	TrxR1 substrate	ClpP mod
33	Cc1ccc(S(=O)(=O)NCCC(=O)Oc2ccc3ccc(=O)oc3c2)cc1	155%	94%	3%
34	Cc1ccc(S(=O)(=O)NC(C(=O)Oc2ccc3ccc(=O)oc3c2)c2ccccc2)cc1 (configuration not stated)	457%	259%	24%
35	Cc1ccc2cc(S(=O)(=O)NCCC(=O)O)ccc2c1	-5%	7%	-3%
36	CCC(NC(=O)OCc1ccccc1)C(=O)Oc1ccc2ccc(=O)oc2c1 (configuration not stated)	343%	117%	.
37	O=C(Oc1ccc2ccc(=O)oc2c1)c1ccccc1	-8%	28%	4%
38	COc1ccc(Cn2c(N)c(C#N)c3nc4ccccc4nc32)cc1	48%	65%	?
39	COCCn1c(N)c(C#N)c2nc3ccccc3nc21	i	663%	-2%
40	COc1cc(Cn2c(N)c(C#N)c3nc4ccccc4nc32)cc(OC)c1	268%	61%[57.1 µM]	32µM*
41	COc1cccc(Cn2c(N)c(C#N)c3nc4ccccc4nc32)c1OC	103%	29%[57.1 µM]	13µM*
42	O=C(NCC(c1ccccc1)c1ccccc1)c1nn(-c2ccccc2F)nc1CO	38%	1%	53%
43	O=C(c1ccc(Cl)c(S(=O)(=O)N2CCOCC2)c1)N(Cc1nnc(-c2ccccc2Cl)o1)C1CC1	.	2%	22µM*
44	CCOc1ccc(-c2nn3c(-c4cc(-c5ccccc5)n[nH]4)nnc3s2)cc1	.	-3%	-23%
45	Cc1ccc(OCCCC(=O)Nc2sc3c(c2C(N)=O)CCCC3)cc1	-13%	1%	-13%
46	O=C1c2cccc3cccc(c23)C(=O)N1c1ccccn1	-7%	40%	4%
47	O=C1c2cccc3cccc(c23)C(=O)N1c1cccnc1	8%	33%	16µM*
48	O=C1c2cccc3cccc(c23)C(=O)N1c1ccncc1	6%	43%	10µM*
49	CCc1nnc(N2C(=O)c3cccc4cccc(c34)C2=O)s1	-9%	17%[57.1 µM]	16µM*

cpd	miR-21 reporter	TrxR1 inh
33	-13%	56µM*
34	-3%	50µM*
35	-3%	18%
36	0%	50µM*
37	6%	18%
38	-8%	-5%
39	-7%	-7%
40	-3%	25%[57.1 µM]
41	-21%	17%[57.1 µM]
42	26%	18%
43	.	?
44	.	17%
45	-3%	-11%
46	1%	-6%
47	-18%	0%
48	-7%	-25%
49	0%	6%[57.1 µM]

Assay outcomes (PubChem)
